Data taken from PMC7749613, “Characterization of the cellular transport mechanisms for the anti‐cachexia candidate compound TCMCB07” (Journal of Cachexia, Sarcopenia and Muscle, 2020).

Protein sequences, listed by entry. Tags and fused reporters are not part of them.
UniProt P08183, whole entry: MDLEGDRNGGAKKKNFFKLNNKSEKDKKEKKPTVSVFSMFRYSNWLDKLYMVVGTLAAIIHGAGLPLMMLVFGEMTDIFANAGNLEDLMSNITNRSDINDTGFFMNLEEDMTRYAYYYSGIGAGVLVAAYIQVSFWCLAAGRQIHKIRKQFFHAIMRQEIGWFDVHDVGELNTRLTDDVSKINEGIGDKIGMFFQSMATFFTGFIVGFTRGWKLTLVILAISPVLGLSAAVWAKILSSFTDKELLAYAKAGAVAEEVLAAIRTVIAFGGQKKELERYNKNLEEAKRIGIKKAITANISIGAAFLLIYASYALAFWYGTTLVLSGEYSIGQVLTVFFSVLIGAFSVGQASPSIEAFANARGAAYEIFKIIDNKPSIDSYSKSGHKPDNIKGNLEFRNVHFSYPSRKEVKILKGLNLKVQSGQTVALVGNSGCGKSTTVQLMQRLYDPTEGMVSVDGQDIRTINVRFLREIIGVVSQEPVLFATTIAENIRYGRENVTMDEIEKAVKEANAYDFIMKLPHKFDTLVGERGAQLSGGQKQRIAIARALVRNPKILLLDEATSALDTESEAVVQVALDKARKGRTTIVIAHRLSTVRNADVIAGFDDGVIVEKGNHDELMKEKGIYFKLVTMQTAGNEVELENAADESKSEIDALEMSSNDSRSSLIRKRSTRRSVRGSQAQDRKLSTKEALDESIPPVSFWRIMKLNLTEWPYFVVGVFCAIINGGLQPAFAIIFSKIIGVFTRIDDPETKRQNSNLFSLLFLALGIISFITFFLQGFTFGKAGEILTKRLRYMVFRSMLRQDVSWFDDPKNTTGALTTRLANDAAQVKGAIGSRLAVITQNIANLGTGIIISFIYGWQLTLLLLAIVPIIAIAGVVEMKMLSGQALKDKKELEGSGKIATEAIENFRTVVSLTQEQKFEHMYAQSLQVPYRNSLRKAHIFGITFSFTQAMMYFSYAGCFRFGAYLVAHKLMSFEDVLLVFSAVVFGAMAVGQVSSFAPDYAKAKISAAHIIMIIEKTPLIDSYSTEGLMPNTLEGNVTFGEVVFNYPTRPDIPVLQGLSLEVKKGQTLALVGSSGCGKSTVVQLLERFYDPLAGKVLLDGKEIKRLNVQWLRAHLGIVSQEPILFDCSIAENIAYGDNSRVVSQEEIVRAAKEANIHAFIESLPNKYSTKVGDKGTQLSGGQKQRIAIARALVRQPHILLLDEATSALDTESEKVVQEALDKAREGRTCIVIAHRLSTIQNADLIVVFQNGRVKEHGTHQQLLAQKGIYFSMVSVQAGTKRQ

Target: T1, human P‐gp (ABCB1, MDR1) (Homo sapiens, UniProt P08183)
T1 construct: host or cells: MDCKII
Experiment: Transepithelial transport of digoxin (±TCMCB07) in MDCKII/MDR1 cells
Type: in vitro ADME
Conditions: MDCKII/MDR1, 500 μM TCMCB07; negative = efflux ratio increased
Description: Cells were then washed three times, each with 0.5 mL pre‐warmed HBSS buffer. For transepithelial transport in the A to B direction, 0.3 mL of drug‐containing buffer pH 7.4 (HBSS, 25 mM HEPES, 0.5% DMSO, 38 nM [^3H]digoxin or 21 nM [^3H]rosuvastatin, and 1.75 μM [^14C]mannitol) was added to the apical chamber, and 1.0 mL of blank buffer (i.e. no drug) was added to the basolateral chamber. For transepithelial transport in the B to A direction, 1.0 mL of drug‐containing buffer pH 7.4 (HBSS, 25 mM HEPES, 0.5% DMSO, 38 nM [^3H]digoxin or [^3H]rosuvastatin, and 1.75 μM [^14C]mannitol) was added to the basolateral chamber, and 0.3 mL of blank buffer (i.e. no drug) was added to the apical chamber. The cells were then incubated for various times up to 60 min. […]
The permeability of digoxin and rosuvastatin (prototypical substrates for MDR1 and BCRP, respectively) was determined by the following ^18 : (4) Papp=CR·VR/CD^o·A·∆Δt, where Papp is the apparent permeability, CR is the concentration of substrate in the receiver chamber, CD^o is the concentration of substrate in the donor chamber at time zero, VR is the volume of buffer in the receiver chamber, A is the surface area of the insert filter membrane, and ∆t is the time over which permeability is measured. […] The % change in digoxin ER, due to TCMCB07, can then be quantified as: (6) %ChangeER=100·ERDig−ERDig+T/ERDig=100·1−ERDig+T/ERDig.

Compound: CCCC[C@H](NC(C)=O)C(=O)N[C@H]1CC(=O)NCCCC[C@@H](C(=O)N[C@@H](C(=O)N2CCC[C@@H]2C(N)=O)C(C)C)NC(=O)[C@H](Cc2c[nH]c3ccccc23)NC(=O)[C@H](CCCN=C(N)N)NC(=O)[C@@H](Cc2ccc3ccccc3c2)NC(=O)[C@@H]2CCCN2C1=O [TCMCB07, Ac‐Nle‐c[Asp‐Pro‐dNal2′‐Arg‐Trp‐Lys]‐dVal‐dPro‐NH2]
- % Change ER of digoxin, 100·(1−ERDig+T/ERDig): −152%
